Data taken from article PMC7251097, “Aspartate/asparagine-β-hydroxylase: a high-throughput mass spectrometric assay for discovery of small molecule inhibitors” (Scientific Reports, 2020).

Target: T1, His6-AspH315–758 (human aspartate/asparagine-β-hydroxylase, AspH) (Homo sapiens, UniProt Q12797)
T1 construct: N-Terminally His6-tagged human AspH315–758 (His6-AspH315–758) was produced in E. coli BL21 (DE3) cells; made in house; host or cells: E. coli BL21 (DE3), pET-28a(+) vector
T1 sequence (Q12797 315-758): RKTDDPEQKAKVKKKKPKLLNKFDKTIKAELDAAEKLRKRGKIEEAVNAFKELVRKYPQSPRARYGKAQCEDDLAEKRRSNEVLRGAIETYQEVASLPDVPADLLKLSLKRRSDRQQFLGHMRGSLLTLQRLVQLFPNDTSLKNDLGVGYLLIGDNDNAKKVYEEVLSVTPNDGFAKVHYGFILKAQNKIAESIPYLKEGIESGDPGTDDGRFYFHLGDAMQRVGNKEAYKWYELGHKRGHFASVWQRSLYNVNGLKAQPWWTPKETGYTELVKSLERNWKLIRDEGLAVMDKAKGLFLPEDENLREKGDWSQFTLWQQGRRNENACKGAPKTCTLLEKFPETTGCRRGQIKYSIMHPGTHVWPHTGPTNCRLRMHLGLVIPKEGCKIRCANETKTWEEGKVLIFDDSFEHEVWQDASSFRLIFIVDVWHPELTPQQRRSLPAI
Experiment: SPE-MS AspH inhibition assay (LOPAC screen at fixed 20 μM and IC50 dose-response), hydroxylation of cyclic peptide hFX-CP101–119
Assay type: biochemical

Compound	Plate 5 (% conversion) [%]	IC50 [μM] (pH 7.5)
CP-335963	39.30	–
C[N+](C)(C)NCCC(=O)[O-] [Meldonium, meldonium, reference compound]	–	inactive
